Compound activity deposited in PubChem by National Center for Advancing Translational Sciences (NCATS).
gsp antagonist – antagonizes gsp, the McCune-Albright syndrome mutation; Potency, µM (doses to about 76.9 µM), for the others: at the highest dose activity change, negative = inhibition, hits mostly inhibitors; gsp-mutant cells, cAMP HTRF, 30 min; AID 624288; 340,000 compounds, 0.4% hits; calls by dose curve; cell line not stated here;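 note: intracellular cAMP measured with PDE inhibitor Ro 20-1724 present during compound exposure; % is set by controls: 0 for no effect and ±100 for the full control effect; nearly all actives have a fitted effect of over 65% in size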
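HTRF cAMP measurement after 30 min RT detection following 30 min, 37C compound treatment alongside […] (added as 300 uM solution) in G418-selected cells seeded at 2000/well and grown 16–24 h.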
Rango dissoc inh – prevents RanGTP from dissociating the Rango-importin beta complex; Potency, µM (series often up to 46.1 µM), without a hit: at the top dose activity change, negative = inhibition; O95149+P62826; Biochemical FRET Rango-importin beta, RanGTP-induced dissociation; 340,000 compounds, 0.071% hits; note: % of control where 0% means no effect; nearly all actives have a fitted effect of over 45% in size
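Rango FRET biosensor (snurportin-1 IBB flanked by N-terminal EYFP and C-terminal CFP10) at 0.1 uM, with 0.25 uM importin beta in PBS, 1mM DTT, 0.02% Tween-20, 0.1% BSA. 0.6 uM Ran, 2mM GTP and 0.2 uM RCC1 were then added for 45 min at room temperature. Inhibition read as loss of FRET rise.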
gsp ag – gsp mutant agonism; gsp mutant cells, cAMP HTRF, 30 min; Potency, µM (highest dose often 76.9 µM), without a hit: top-dose activation (cAMP increase), most hits filed as activators; 340,000 compounds, 0.13% hits; active = well fitted activation curve with a large enough effect; inconclusive = small, poorly fitted or top-dose-only effect, or another doubt; inactive = no such curve, though single readings can be large or run the other way; cell line not stated here;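 note: phosphodiesterase inhibitor Ro 20-1724 added with compounds to block cAMP breakdown; nearly all actives have a fitted effect of over 60% in size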
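Cells in DMEM/10% FBS with G418 were pretreated with compounds in DMSO plus […] (300 uM stock) for 30 min at 37C. cAMP was measured by HTRF (cAMP-d2 plus anti-cAMP antibody-K) after 30 min at room temperature.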
Rango-impB inh – Rango-importin beta binding inhibition; Q14974; Rango CFP/YFP FRET sensor + importin beta, 45 min; Potency, µM (titrated, usually from 92.2 µM), for inactives: top-dose inhibition of complex formation; 340,000 compounds, 0.031% hits; AID 540263;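 note: 0% = DMSO wells and 100% = buffer wells lacking importin beta; nearly all actives have a fitted effect of over 15% in size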
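Inhibition scored from the CFP 486 nm/YFP 530 nm FRET ratio 45 min after adding 0.125 microM importin beta to 50 nM Rango biosensor preincubated 5 min with compound (room temperature, PBS with DTT, Tween-20, BSA). No-importin wells as positive control.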
Starred values were filed as active, the others as inactive; ? = inconclusive; nt = no result given; [ ] = dose if it differs, or a comment. Only some compounds are listed: those with a hit (about 0.66% of all), similar ones and a draw of the others. Unless noted, calls come from the whole dose curve. Potency is the fitted concentration of half-maximal effect.

Sample of the layout, 4 compounds:
SMILES	gsp antagonist	Rango dissoc inh	gsp ag	Rango-impB inh
COc1cccc2cc(C(=O)C3=C(O)C(=O)N(Cc4ccco4)C3c3cccnc3)oc12 (stereo not drawn)	-2%	-23%	10µM*	?
C=CCOc1ccc(C2C(C(=O)c3ccco3)=C(O)C(=O)N2Cc2cccnc2)cc1 (stereo not drawn)	14%	-1%	28µM*	0%
O=C(C1=C(O)C(=O)N(CCN2CCOCC2)C1c1cccc(F)c1)c1cc2ccccc2o1 (stereo not drawn)	6%	-28%	7.1µM*	-1%
O=C(C1=C(O)C(=O)N(Cc2ccco2)C1c1cccnc1)c1cc2ccccc2o1 (stereo not drawn)	4%	?	13µM*	-2%

Results (from the top)
SMILES	gsp antagonist	Rango dissoc inh	gsp ag	Rango-impB inh
COc1cccc2cc(C(=O)C3=C(O)C(=O)N(Cc4ccco4)C3c3cccnc3)oc12 (stereo not drawn)	-2%	-23%	10µM*	?
C=CCOc1ccc(C2C(C(=O)c3ccco3)=C(O)C(=O)N2Cc2cccnc2)cc1 (stereo not drawn)	14%	-1%	28µM*	0%
O=C(C1=C(O)C(=O)N(CCN2CCOCC2)C1c1cccc(F)c1)c1cc2ccccc2o1 (stereo not drawn)	6%	-28%	7.1µM*	-1%
O=C(C1=C(O)C(=O)N(Cc2ccco2)C1c1cccnc1)c1cc2ccccc2o1 (stereo not drawn)	4%	?	13µM*	-2%
COc1cccc(CN(C)C(=O)c2ccc(S(=O)(=O)Nc3cccc(C)c3C)cc2)c1OC	nt	nt	7%	nt
O=C(C(Br)=Cc1ccccc1)c1ccccc1	-8%	3%	17%	0%
CCCn1nc(C(=O)OCC(=O)c2ccc3c(c2)NC(=O)CO3)c2ccccc2c1=O	6.3µM*	-8%	-2%	-2%
O=C1COc2ccc(C(=O)COC(=O)c3ccccn3)cc2N1	8%	-20%	-6%[15.4 µM]	0%
CCN(CC)CC(C)(C)C(=O)/C=C/c1ccc(/C=C/C(=O)C(C)(C)CN(CC)CC)cc1	14%	6%	-2%	0%
Cc1cccc(NS(=O)(=O)c2cccc(C(=O)NCC3(N4CCOCC4)CCCCC3)c2)c1	-27%	2%	-10%	-4%
CCCOc1cccc(-c2cc(C(=O)NNC(=S)NCC)c3ccccc3n2)c1	35µM*	0%	-4%	0%
CCNC(=S)NNC(=O)c1cc(-c2cccc(OC)c2)nc2ccccc12	5%	6%	-35%	3%
C[C@@H]1CCCCO[C@H](CN(C)S(=O)(=O)c2ccccc2)[C@@H](C)CN([C@H](C)CO)C(=O)c2cc(NC(=O)Cc3ccccc3)ccc2O1	nt	nt	-86%	nt
Fc1ccc(-[n+]2nc(Nc3ccccc3)sc2-c2c(Cl)cccc2Cl)cc1	?	-4%	nt	-2%
CCc1ccc(Nc2n[n+](-c3ccccc3)c(-c3c(Cl)cccc3Cl)s2)cc1	32µM*	-5%	nt	?
Cc1ccc([C@H]2C[C@H](O)[C@@H](n3cc(C4CC4)nn3)CN2C(=O)c2cccs2)cc1	nt	nt	-35%	nt
O=[N+]([O-])c1ccc(-c2nc(Nc3cccc(O)c3)c3ccccc3n2)cc1	28µM*	0%	?	2%
COc1ccc(CCNC(=O)c2ccc(F)c(S(=O)(=O)N3CCCCC3)c2)cc1	nt	nt	5%	nt
CC(C)CCNC(=O)c1ccc2c(c1)ncn2C1CCCC1	7.9µM*	1%	-2%[15.4 µM]	5%
CCOCCCNC(=O)c1ccc2c(c1)ncn2C1CCCC1	-4%	-5%	2%	-6%
COc1ccc(N=NC2=C(O)CC(C)(C)CC2=O)c(OC)c1	8%	15%	-10%	52µM*
COc1ccc(N=NC2=C(O)CC(C)(C)CC2=O)cc1	0%	6%	3%	-3%
COc1ccc(CCN2C(=O)CSC2=Nc2ccc(C(C)C)cc2)cc1OC	28µM*	-8%	-8%[15.4 µM]	-2%
COc1ccc(-c2cc3nc(C)cc(N4CCN(C(=O)c5cccnc5)CC4)n3n2)cc1	nt	nt	-1%	nt
COc1cc(CNCc2ccncc2)cc(Br)c1OCc1ccccc1F	32µM*	0%	-42%	-1%
COc1cc(CNc2ccc(O)cc2)cc(Br)c1OCc1ccccc1F	-20%	-15%	5%	-3%
COc1cccc(CNC(=O)COC(=O)/C(C#N)=C/c2ccc(N(C)C)cc2)c1	11%	?	25µM*	?
CC(C)CSCC1OC(n2cnc3c(N)nccc32)C(O)C1O (stereo not drawn)	nt	nt	3%	nt
C[C@@H]1CCCCO[C@@H](CN(C)S(=O)(=O)c2cn(C)cn2)[C@@H](C)CN([C@H](C)CO)C(=O)c2cc(N(C)C)ccc2O1	nt	nt	10%	nt
COc1ccc(Nc2nc(NCCO)nc(N3CCCC3)n2)cc1	nt	-10%	nt	-1%
CCCNc1nc(Nc2ccc(C)cc2)nc(N2CCCC2)n1	32µM*	-20%	16%	46µM*
N#Cc1cc2c(=O)n3ccccc3nc2n(CCCN2CCOCC2)c1=O	21%	?	35µM*	?
Cc1ccc(S(=O)(=O)N2CCN(C(=O)c3cc(S(=O)(=O)N(C)C)ccc3N3CCCC3)CC2)c(C)c1	-17%	0%	9%	-4%
CCN(CC(=O)Nc1cc(Cl)ccc1C)CC(=O)NC1CC1	nt	nt	-17%	nt
COc1cccc(CN2CC(C(=O)NCc3cccc(N4CCCC4)c3)CCC2=O)c1 (stereo not drawn)	3.2µM*	3%	-44%	7%
COc1cc(-n2c(C)nc3ncn(-c4ccccc4)c3c2=O)cc(OC)c1OC	nt	nt	3%	nt
COCCn1c(N)c(N(Cc2ccccc2)C(=O)C(C)Oc2ccc(Br)cc2)c(=O)[nH]c1=O (stereo not drawn)	nt	nt	-70%	nt
Cc1oc2cc3oc(=O)c(CC(=O)NCC(=O)N[C@@H](C(=O)O)c4ccccc4)c(C)c3cc2c1C	3%	?	nt	?
Cc1oc2cc3oc(=O)c(CC(=O)N[C@H](C(=O)N[C@@H](C(=O)O)c4ccccc4)C(C)C)c(C)c3cc2c1C	50µM*	-15%	nt	-3%
CC1CCN(C(=O)C2CCCCN2S(=O)(=O)c2cccc([N+](=O)[O-])c2)CC1 (stereo not drawn)	50µM*	1%	-50%	-2%
NC(=O)C1(N2CCCCC2)CCN(C(=O)c2cc(COc3c(F)cccc3F)on2)CC1	nt	nt	-34%	nt
CCCc1nc(N2CCOCC2)c(C#N)c2c1CCCC2	-1%	?	-2%	?
CC(C)c1nc(N2CCOCC2)c(C#N)c2c1CCC2	35µM*	-15%	0%	-3%
CCO[C@H]1OC(C(=O)N2CCN(Cc3ccc4c(c3)OCO4)CC2)=C[C@@H](C(C)(C)C)[C@@H]1CCCO	7.9µM*	7%	nt	-2%
CCO[C@@H]1OC(C(=O)N2CCN(Cc3ccc4c(c3)OCO4)CC2)=C[C@H](C2CCCCC2)[C@H]1CCCO	?	1%	nt	-2%
CCC1=C(OC(=O)N(CC)CC)N2C(=O)OC(=NCCc3c[nH]c4ccccc34)[C@]2(Cc2ccccc2)[C@H]2C1=CC[C@H]1C(=O)NC(=O)[C@H]12	11µM*	-15%	-2%	0%
C[C@@H]1CN([C@@H](C)CO)C(=O)c2cc(Br)cnc2O[C@H]1CN(C)C(=O)CN1CCOCC1	nt	nt	-1%	nt
CC(C)c1ccc(NC(=O)C2CC(=O)N(C(C)C)C2)cc1 (stereo not drawn)	-3%	18%	-8%	4.1µM*
CC(C)N1CC(C(=O)Nc2ccc(C#N)cc2)CC1=O (stereo not drawn)	-2%	14%	-8%	0%
Cn1cc(/C=C2\SC(=O)N(c3ccccc3)C2=O)c2ccccc21	45µM*	4%	-6%[15.4 µM]	?
Cn1cc(/C=C2\SC(=O)N(c3ccc(O)cc3)C2=O)c2ccccc21	32µM*	?	0%	?

Profiles, looked up by structure.
C[C@@H]1CN([C@@H](C)CO)C(=O)c2cc(Br)cnc2O[C@H]1CN(C)C(=O)CN1CCOCC1 as listed: gsp antagonist: nt; Rango dissoc inh: nt; gsp ag: -1%; Rango-impB inh: nt
CCO[C@@H]1OC(C(=O)N2CCN(Cc3ccc4c(c3)OCO4)CC2)=C[C@H](C2CCCCC2)[C@H]1CCCO as listed: gsp antagonist: ?; Rango dissoc inh: 1%; gsp ag: nt; Rango-impB inh: -2%
